# From patent publication US20020177166A1, “Binding motif of a receptor” (MEDVET SCIENCE PTY.LTD., priority 2000, published 2002)
# B1: IL-3: recombinant human IL-3 produced in E. coli (protein, UniProt P08700 20-152, looked up)
# Interleukin-3: APMTQTTPLKTSWVNCSNMIDEIITHLKQPPLPLLDFNNLNGEDQDILMENNLRRPNLEAFNRAVKSLQNASAIESILKNLLPCLPLATAAPTRHPIHIKDGDWNEFRRKLTFYLKTLENAQAQQTTLSLAIF
# Experiments:
# CTL-EN cells = assay: Cell cycle distribution, propidium iodide staining and flow cytometry; type: cell-based; settings: CTL-EN cells growing asynchronously in the presence of IL-2
# Procedure: Cells were then stimulated for a further 24 hours with 50 ng/ml IL-3 in the same medium after which the cells were harvested by centrifugation, fixed in ethanol and stained with propidium iodide. Cell cycle distribution was then analysed by flow cytometry. b) c-myc induction in response to IL-3 stimulation. CTL-EN cells were washed, starved and stimulated with IL-3 for 2 hours as described above. Total RNA was extracted and subjected to Northern blot analysis. Filters were probed sequentially with ^32P-labelled cDNAs for c-myc and 18SrRNA. Signals were detected by autoradiography.
# To determine if the signalling defect of the βcHSRSLP→EFAAAA receptor was specifically related to cell survival or if cell proliferation was also impaired, cell cycle progression in response to IL-3 was examined. CTL-EN cells were starved in medium containing 0.1% FCS and no IL-3 for 24 hours and then stimulated with IL-3 for up to 24 hours. The cells were then fixed in ethanol and the cell cycle distribution was examined by prodidium iodide staining and flow cytometry. Under these starvation conditions, nearly 90% of CTL-EN cells accumulate in the G0/G1 phase of the cell cycle (FIG. 16a). […] We also examined the regulation of c-myc mRNA expression in response to IL-3 by Northern blot analysis. The induction of c-myc is proposed to be an important pre-requisite for cell proliferation. […]
# [1] = tested on: p85 regulatory subunit of PI 3-kinase association with βc; assay: Co-immunoprecipitation of p85 with βc in CTL-EN cells; type: cell-based; settings: IL-3
# Procedure: (a) analysis of PI 3-kinase activity. CTL-EN cells expressing IL-3Ra and either wtβc or βcHSRSLP→EFAAAA were starved for 12 hours in DMEM containing 0.5% FCS and stimulated with 50 ng/ml IL-3 for the indicated times. Cells were then lysed and phospho-tyrosine containing proteins were immunoprecipitated (2×10^7 cells/IP) using the 4G10 antibody. Immunoprecipitates were washed in 1× PI 3-kinase buffer (20 mM HEPES, pH 7.5, 5 mM MgCl2, 1 mM EGTA) and PI 3-kinase activity was analysed in a lipid kinase assay using phosphatidyl inositol and g^32PATP as substrates as described in the “Materials and Methods”. Autoradiogram of TLC plate is shown with ^32P-labelled phosphatidyl inositols (PIP) and the origin indicated. […] (b) CTL-EN cells were also examined for the association of βc with p85. CTL-EN cells expressing either wtβc or βcHSRSLP→EFAAAA were starved for 12 hours in DMEM containing 0.5% FCS and then stimulated with 50 ng/ml IL-3 for the indicated times. Cells were then lysed and the βc immunoprecipitated (2×10^7 cells/IP) with the 1C1 anti-βc specific mAb. Immunoprecipitates were then subjected to SDS-PAGE, transferred to nitrocellulose and immunoblotted with anti-p85 (1 mg/ml) followed by detection with HRP-conjugated anti-rabbit IgG antibody and ECL. The filters were then stripped, probed with anti-SHP2 (1 mg/ml), stripped again and finally probed with 1C1 anti-βc (2 mg/ml). […] The association of hisβc445-881 with p85 was also assessed in pull-down experiments together with peptide competition. (c) List of peptides used in the hisbβc445-881 pull-down experiment. S refers to a phospho-serine residue. (d) Association of p85 with recombinant hisβc445-881. hisβc445-881 (10 mg) coupled to Sepharose resin and phosphorylated on Ser585 with PKA (lanes 1-5) or Sepharose alone (lane 6) was incubated with COS-7 pre-cleared lysates in the absence (lane 1) or in the presence of 200 mM competing peptides (lane 2, scrambled. Lane 3, Ser585Ala. Lane 4, non-phospho-Ser585. lane 5, phospho-Ser585) for 1 hour at 4° C. […]
molecule,measurement,setting,value
IL-2: IL-2 control cytokine,cells in G0/G1 phase,CTL-EN cells,approximately 37%
B1,recruitment of p85 to βc,[1]; CTL-EN wtβc,association of p85 with wtβc which was maximal at 5 minutes; also recorded: recruitment of p85 to wtβc
same,recruitment of p85 to βc,[1]; CTL-EN βcHSRSLP→EFAAAA,virtually abolished; also recorded: no recruitment of p85
same,recruitment of p85 to βc,[1]; CTL-EN βcS585G,no recruitment of p85

# “Also recorded” adds a separate entry of the source.
